“Also recorded” adds a separate entry of the source. Blank lines part the entries; values can stand above or below the molecule they belong to.
Tests used:
[1] = target: T1, human CSF-1R fragment delD4 (Homo sapiens, UniProt P07333, DEL295-399); assay: Binding to human CSF-1R fragment delD4 (SPR, binding signals as RU); settings: Biacore sensogram
T1 construct: PreScission site - human IgG1 Fc - 6xHis (PreSc-hFc-His) (C, cleaved yes); made in house; host or cells: Hek293 FreeStyle suspension cells, transient transfection
Experimental: (§1) The “binding to human CSF-1R fragment delD4 (SEQ ID NO: 65) and to human CSF-1R Extracellular Domain (SEQ ID NO: 64)” as used herein is measured by a Surface Plasmon Resonance assay (Biacore assay) as described in Example 4. The human CSF-1R fragment delD4 (SEQ ID NO: 65) or human CSF-1R Extracellular Domain (SEQ ID NO: 64), respectively, are captured to the surface (each to a separate surface) and the test antibodies were added (each in a separate measurement) and the respective binding signals (Response Units (RU)) were determined. Reference signals (blank surface) were subtracted. If signals of nonbinding test antibodies were slightly below 0 the values were set as 0. Then the ratio of the respective binding signals (binding signal (RU) to human CSF-1R fragment delD4/binding signal (RU) to human CSF-1R Extracellular Domain (CSF-1R-ECD)) is determined. The antibodies according to the invention have a ratio of the binding signals (RU(delD4)/RU(CSF-1R-ECD) of 1:50 or lower, preferably of 1:100 or lower (the lower included end is 0 (e.g. if the RU is 0, then the ratio is 0:50 or 0:100)).
(§2) Determination of the Binding of Anti-CSF-1R Antibodies to Human CSF-1R Fragment delD4 and to Human CSF-1R Extracellular Domain (CSF-1R-ECD) (Binding Signals as Response Units (RU):
(§3) CSF-1R fragments were immobilized via amine coupling. To compare the binding of different anti-CSF-1R antibodies according to the invention one concentration of the test antibody was injected. Anti CSF-1R Mab3291 (R&D-Systems) and SC 2-4A5 (Santa Cruz Biotechnology, US—see also Sherr, C. J. et al., Blood 73 (1989) 1786-1793), was used as reference control, anti-CCR5 m<CCR5>Pz03.1C5 (deposited as DSM ACC 2683 on 18.08.2004 at DSMZ) as negative control, all under the same conditions as the anti-CSF-1R antibodies according to the invention.
(§4) Standard amine coupling according to the manufacturer's instructions: running buffer: PBS-T (Roche: 11 666 789+0.05% Tween20: 11 332 465), activation by mixture of EDC/NHS, injection of human CSF-1R fragment delD4 (comprising the extracellular subdomains D1-D3 and D5) (SEQ ID NO: 65) and human CSF-1R Extracellular Domain (CSF-1R-ECD) (comprising the extracellular subdomains D1-D5) (SEQ ID NO: 64) for 600 seconds at flow rate 10 μl/min; diluted in coupling buffer NaAc, pH 5.0, c=10 μg/mL; finally remaining activated carboxyl groups were blocked by injection of 1 M Ethanolamin.
(§5) Binding of <CSF-1R> Mab 2F11, Mab 2E10, Mab 3291 and Sc2-4A5 and Other Anti-CSF-1R Antibodies to Human CSF-1R Fragment delD4 and Human CSF-1R Extracellular Domain (CSF-1R-ECD) at 25° C.
(§6) Binding was measured at a flow rate of 30 μL/min by one injection of the analyte with concentration c=10 nM. […] Signals were measured by a report point 10 seconds after end of injection.

Protein sequences, listed by entry. Tags and fused reporters are not part of them. Chains listed by the source or under a name are the forms on record and can include a tag or linker. Residues count along the entry.
UniProt P07333, with tags, fused parts or gaps DEL295-399: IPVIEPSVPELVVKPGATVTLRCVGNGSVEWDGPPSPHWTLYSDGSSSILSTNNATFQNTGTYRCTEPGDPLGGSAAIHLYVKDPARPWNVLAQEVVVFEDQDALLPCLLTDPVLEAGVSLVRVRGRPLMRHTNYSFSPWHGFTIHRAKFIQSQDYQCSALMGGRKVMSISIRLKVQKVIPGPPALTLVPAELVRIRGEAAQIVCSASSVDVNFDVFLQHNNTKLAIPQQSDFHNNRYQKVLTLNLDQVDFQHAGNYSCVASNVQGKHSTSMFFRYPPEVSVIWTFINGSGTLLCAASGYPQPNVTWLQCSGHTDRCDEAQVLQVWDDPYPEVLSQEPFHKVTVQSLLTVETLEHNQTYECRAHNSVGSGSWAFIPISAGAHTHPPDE
UniProt P07333, 20-512: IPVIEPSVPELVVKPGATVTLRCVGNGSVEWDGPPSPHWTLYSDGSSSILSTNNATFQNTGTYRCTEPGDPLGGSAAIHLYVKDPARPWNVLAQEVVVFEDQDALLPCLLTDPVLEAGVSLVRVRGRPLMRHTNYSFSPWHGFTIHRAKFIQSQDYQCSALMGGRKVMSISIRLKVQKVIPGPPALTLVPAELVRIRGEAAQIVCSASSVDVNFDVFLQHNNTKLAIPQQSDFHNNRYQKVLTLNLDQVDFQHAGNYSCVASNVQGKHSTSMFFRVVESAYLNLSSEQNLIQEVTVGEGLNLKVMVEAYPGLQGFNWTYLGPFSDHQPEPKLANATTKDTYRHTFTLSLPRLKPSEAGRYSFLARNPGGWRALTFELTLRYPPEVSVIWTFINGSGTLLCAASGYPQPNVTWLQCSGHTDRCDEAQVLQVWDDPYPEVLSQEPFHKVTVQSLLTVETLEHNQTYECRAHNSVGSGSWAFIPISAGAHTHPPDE
UniProt P07333, 20-311: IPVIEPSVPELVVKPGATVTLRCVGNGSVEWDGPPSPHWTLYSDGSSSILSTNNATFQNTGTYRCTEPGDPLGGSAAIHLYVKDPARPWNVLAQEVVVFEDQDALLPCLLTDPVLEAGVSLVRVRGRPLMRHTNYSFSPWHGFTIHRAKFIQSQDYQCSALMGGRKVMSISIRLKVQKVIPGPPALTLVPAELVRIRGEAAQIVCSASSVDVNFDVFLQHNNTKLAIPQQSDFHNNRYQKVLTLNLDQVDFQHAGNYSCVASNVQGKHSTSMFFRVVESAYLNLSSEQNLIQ

[2] = target: T2, human CSF-1R Extracellular Domain (CSF-1R-ECD) (Homo sapiens, UniProt P07333); assay: Binding to human CSF-1R Extracellular Domain (SPR, binding signals as RU); settings: Biacore sensogram
T2 construct: PreScission site - human IgG1 aa100-330 (Fc) - 6xHis (C); made in house; host or cells: Hek293 FreeStyle suspension cells, transient transfection
Experimental: as §1, §2, §3, §4, §5, §6

CSF-1R ECD = CSF-1R ECD (Homo sapiens, UniProt P07333); assay: Biacore competition assay using the CSF-1R ECD; type: binding; settings: data not shown
Text: Thus the binding region of Mab 2F11/Mab 2E10 is clearly distinct from the binding region of Ab SC-2-4A5, but probably located in a vicinity area.

[3] = target: T3, human CSF-1R fragment D1-D3 (Homo sapiens, UniProt P07333); assay: Binding to human CSF-1R fragment D1-D3 (SPR); settings: for binding to human CSF-1R fragment D1-D3 (in words): SPR; for KD: fragment D1-D3, SPR single cycle kinetics, 37° C.
T3 construct: His-Avitag; made in house
Experimental: The term “binding to human CSF-1R fragment D1-D3” refers to a binding affinity determination by a Surface Plasmon Resonance assay (Biacore assay). The test antibody is captured to the surface and the human CSF-1R fragment D1-D3 (SEQ ID NO: 66) was added and the respective binding affinities were determined.
Determination of the Binding of Anti-CSF-1R Antibodies to Human CSF-1R Fragment D1-D3
Antibodies against CSF-1R were captured via amine coupled capture molecules.
Using the single cycle kinetics five increasing concentrations of human CSF-1R fragment D1-D3 (SEQ ID NO: 66) were injected. Human CSF-1R fragment D1-D3 was subcloned into pCMV-presS-HisAvitag expression vector.
Anti CSF-1R SC 2-4A5 (Santa Cruz Biotechnology, US; Sherr, C. J. et al., Blood 73 (1989) 1786-1793) which inhibits the ligand-receptor interaction, and Mab 3291 (R&D-Systems) were used as reference controls.
Capture molecules: Anti mouse Fcγ antibodies (from goat, Jackson Immuno Research JIR115-005-071) for antibodies according to the invention and the R&D-Systems control Mab 3291 and Anti rat Fcγ antibodies (from goat, Jackson Immuno Research JIR112-005-071) for the reference control anti CSF-1R SC 2-4A5.
Standard amine coupling according to the manufacturer's instructions: running buffer: HBS-N buffer, activation by mixture of EDC/NHS, aim for ligand density of 2000 RU; the capture-Abs were diluted in coupling buffer NaAc, pH 4.5, c=10 μg/mL; finally remaining activated carboxyl groups were blocked by injection of 1 M Ethanolamin.
Kinetic Characterization of Human CSF-1R Fragments D1-D3 Binding to MAbs <CSF-1R> at 37° C.
Running buffer: PBS (Biacore BR-1006-72) Capturing of Mabs <CSF-1R> on flow cells 2 to 4: Flow 20 μL/min, contact time 90 seconds, c(Abs<CSF-1R>)=50 nM, diluted with running buffer+1 mg/mL BSA; Analyte sample:
Single Cycle Kinetics was measured at a flow rate of 30 μL/min by five consecutive injections of the analyte with concentrations, c=7.8, 31.25, 125 500 and 2000 nM, without regeneration. Each injection was 30 seconds long and followed by a dissociation phase of 120 Seconds for the first four injections, and finally 1200 seconds for the highest concentration (=last injection).
Final regeneration was performed after each cycle using 10 mM Glycin pH 1.5 (Biacore BR-1003-54), contact time 60 seconds, flow rate 30 μL/min
Kinetic parameters were calculated by using the usual double referencing (control reference: binding of analyte to capture molecule; Flow Cell: subdomain CSF-1R concentration “0” as Blank) and calculation with model ‘titration kinetics 1:1 binding with draft’.

B2: Mab 2E10: murine monoclonal anti-human CSF-1R antibody, VH SEQ ID NO: 15, VL SEQ ID NO: 16 (antibody, listed as Mus musculus, V domains shown)
VH: QVQLKESGPGLVAPSKSLSITCTVSGSSLDSFDISWIRQSPGKGLEWLGVIWTGGGTNYNSGFMSRLRITKDNSKSQVLLKMNSLQSDDTAIYYCVRDPRLYFDVWGAGTTVTVSS
VL: NIVMTQSPKSMSMSVGERVTLSCKASEDVVTYVSWYQQKPDQSPKLLIYGASNRYTGVPDRFTGSGSATDFTLTISSVQAEDLADYYCGQTFSYPTFGTGTKLEIK
- binding to CSF-1R fragment delD4 (in words) [1]: no binding was detected; also recorded: do not bind; also recorded: did not bind
- binding to CSF-1R-ECD (in words) [2]: showed binding
- competition with Mab3291 from R&D-Systems (CSF-1R ECD): did not compete
- competition with the antibody Ab SC-2-4A5 (CSF-1R ECD): some competition
- binding to human CSF-1R fragment D1-D3 (in words) [3]: showed no binding
- KD [3]: no binding

B3: Mab 1G10: murine monoclonal anti-human CSF-1R antibody, VH SEQ ID NO: 75, VL SEQ ID NO: 76 (antibody, listed as Mus musculus, V domains shown)
VH: RVQLKESGPGLVAPSQSLSITCTVSGFSLTSYDISWIRQSPGKGLEWLGVIWSGGGTNYNSPFMSRLRISKDDSRSQVFLKVNRLQTDDTAIYYCVRDLRLYFDVWGAGTTVTVSS
VL: KIVMTQSPKSMSVSVGERVSLSCKASEDVGTYVSWYQQKPEQSPKLLIYGSSNRYTGVPDRFTGSGSATDFTLTISSVQAEDLADYSCGQSFTYPTFGTGTKLEIK
- binding to CSF-1R fragment delD4 (in words) [1]: no binding was detected; also recorded: did not bind
- binding to CSF-1R-ECD (in words) [2]: showed binding
- binding to human CSF-1R fragment D1-D3 (in words) [3]: showed no binding
- KD [3]: no binding

Further lines, with some results ahead:

- binding to CSF-1R-ECD (in words) [2]: showed binding
- competition with Mab3291 from R&D-Systems (CSF-1R ECD): did not compete
- competition with the antibody Ab SC-2-4A5 (CSF-1R ECD): some competition
- binding to human CSF-1R fragment D1-D3 (in words) [3]: showed no binding
- KD [3]: no binding
B1: Mab 2F11: murine monoclonal anti-human CSF-1R antibody, VH SEQ ID NO: 7, VL SEQ ID NO: 8 (antibody, listed as Mus musculus, V domains shown)
VH: QVQLKESGPGLVAPSQSLSITCTVSGFSLTTYDISWIRQSPGKGLEWLGVIWTDGGTNYNSPFMSRLSIRKDNSKSQVFLKMNRLQTDDTAIYYCVRDQRLYFDVWGAGTTVTVSS
VL: NIVMTQSPKSMSMSVGERVTLNCKASEDVNTYVSWYQQQPEQSPKLLIYGASNRYTGVPDRFTGGGSTTDFTLTISSVQAEDLADYFCGQSFSYPTFGTGTKLEIK
- binding to CSF-1R fragment delD4 (in words) [1]: no binding was detected; also recorded: do not bind; also recorded: did not bind

- binding to CSF-1R-ECD (in words) [2]: showed binding
B4: Mab 2H7: murine monoclonal anti-human CSF-1R antibody, VH SEQ ID NO: 83, VL SEQ ID NO: 84 (antibody, listed as Mus musculus, V domains shown)
VH: QVQLKESGPGLVAPSKSLSITCTVSGSSLDSFDISWIRQPPGKGLEWLGVIWTGGGTNYNSGFMSRLRISKDNSKSQVFLKMSSLQSDDTAIYYCVRDPRLYFDVWGAGTTVTVSS
VL: NIVMTQSPKSMSMSVGERVTLSCKASEDVVTYVSWYQQKPEQSPKLLIYGASNRYTGVPDRFTGSGSATDFTLTISSIQAEDLADYYCGQTFSYPTFGTGTKLEIK
- binding to CSF-1R fragment delD4 (in words) [1]: no binding was detected; also recorded: did not bind

From patent publication US20170247459A1, “COMBINATION THERAPY OF ANTIBODIES AGAINST HUMAN CSF-1R AND USES THEREOF” (HOFFMANN-LA ROCHE INC., priority 2012, published 2017)
